Molecular target: T1, OX1R (Homo sapiens, UniProt O43613)
T1 construct: host or cells: overexpressing cell lines of different origin (WO2013/187466); nothing is said for WO2016/034882
Assay: OX1R assay of WO2013/187466 (fluorescence measurement of intracellular Ca2+ changes, modified orexin A 300 pM)
Type: cell-based
Conditions: ratio of IC50 values reported in WO2013/187466

By UniProt entry, the sequences of proteins in these tests, tags left out.
UniProt O43613, whole entry, species assumed: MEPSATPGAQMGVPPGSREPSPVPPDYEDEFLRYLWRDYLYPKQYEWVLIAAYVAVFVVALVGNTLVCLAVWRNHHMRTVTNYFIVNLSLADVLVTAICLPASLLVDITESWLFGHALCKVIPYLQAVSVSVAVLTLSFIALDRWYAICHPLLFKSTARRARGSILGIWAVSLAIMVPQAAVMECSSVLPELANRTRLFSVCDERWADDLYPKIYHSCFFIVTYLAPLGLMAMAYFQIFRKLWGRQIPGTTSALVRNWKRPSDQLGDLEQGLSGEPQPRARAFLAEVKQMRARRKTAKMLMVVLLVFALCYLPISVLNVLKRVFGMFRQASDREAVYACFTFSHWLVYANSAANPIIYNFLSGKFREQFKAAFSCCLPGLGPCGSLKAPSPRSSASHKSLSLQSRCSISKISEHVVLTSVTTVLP

- OX2R IC50/OX1R IC50 as described in WO2013/187466: 411
Structure (SMILES): CCN(C(=O)c1cc(F)ccc1-c1ncccn1)[C@@H](C)Cn1nnc(-c2ccc(F)cc2)n1 [Example 70 in WO2013/187466]
